Consider 1 substance from patent US20210346665A1, “CONDUCTIVE MICRONEEDLE PATCH FOR ACTIVE AGENT DELIVERY” (Singapore Health Services Pte Ltd, priority 2018, published 2021).

The series is described as follows: drug loading and release from MeHA MN patches in PBS. Format: physicochemical. To be noted: 10 minutes incubation with drug solution in PBS. Here is the method: The drug loading capabilities of MeHA MNs was investigated by using model drugs of different molecular weights, mainly fluorescein isothiocyanate (FITC), FITC-Dextran and doxorubicin hydrochloride (Dox). The innate ability of the MeHA MN arrays to absorb fluid is taken advantage of to load the drug molecules into the MN tips. All three drugs are dissolved in PBS which were then used to equilibrate MeHA MN patches. After 10 minutes of incubation with the drug solution, the MNs were left to dry in the fumehood (FIG. 14). The amount of drug encapsulated in the MN was determined by immersing the drug loaded MeHA in 1×PBS. By obtaining a 50 μL of the solution at various time points, the fluorescence intensity was measured to determine the drug release profile of the three different drug molecules. […] FITC and FITC-Dextran with low molecular weights (3 to 5 kDa) were easily loaded into the MN tips as compared to bigger Dox molecules (20 kDa).
Next, the release profiles of drugs from the MeHA MN patches were examined. As depicted in FIG. 3B, more than 80% of FITC and FITC-Dextran were released from the MN patches within 30 minutes.

On to FITC-Dextran, for which the “loading into the MN tips through swelling” value is “easily loaded”.
